Consider two compounds from US11028087B2, “2,6-disubstituted-9-cyclopentyl-9H-purines, use thereof as medicaments, and pharmaceutical compositions” (UNIVERZITA PALACKEHO V OLOMOUCI, priority 2017, dated 2021).

Assay [1] relates to caspase-3/7 in MV4-11 cells. Description: Caspase-3/7 activity, combinations with other anticancer drugs. The note with it: 24 hours.
For a further assay, the target named is panel of kinases. Put plainly: Kinase selectivity screen, biochemical phosphorylation assays (Carna Biosciences). The following applies: 10 nM.
Assay [2] deals with FLT3 phosphorylation in MV4-11 xenograft. Description: MV4-11 xenograft target modulation, pFLT3 immunoblot. In kind it is in vivo, mice. The following applies: single dose 10 mg/kg (264 intraperitoneal, Quizartinib oral gavage). In general terms: A western blot detects proteins with antibodies after separation by electrophoresis.

As to `NC1CCC(Nc2nc(Nc3ccc(CN4CCOCC4)cc3)c3ncn(C4CCCC4)c3n2)CC1` (centres unmarked) [Compound 264], in assay [1] (10 nM compound 264), the “relative caspase activity, concentration (nM) 10” value turned out to be 3.51. The “relative caspase activity, concentration (nM) 100” value in assay [1] (100 nM compound 264) came out at 6.32. Further, the “kinase inhibitory activity in words” value was “significant inhibition” on panel of kinases (TRK, CAMK2, SIK, YES, FMS, KIT (D816V), MNK2, ACK and SRC); “strong inhibitory activity” at panel of kinases (against FLT3, PDGFRα/β).

On to `CC(C)(C)c1cc(NC(=O)Nc2ccc(-c3cn4c(n3)sc3cc(OCCN5CCOCC5)ccc34)cc2)no1` [Quizartinib, reference compound], for which the “pFLT3 level in tumor at 24 hours” value in assay [2] is on record as “elevated level of pFLT3”.
